Earlier results on 2 compounds are cited in patent publication US20130338178A1, “SIRTUIN MODULATORS AS INHIBITORS OF CYTOMEGALOVIRUS” (THE TRUSTEES OF PRINCETON UNIVERSITY, priority 2011, published 2013).

Where two headings read alike, the source gives them in different places.

Data set [1] has as its target T1, SIRT1 (Homo sapiens, UniProt Q96EB6).
T1 sequence (Q96EB6 1-747): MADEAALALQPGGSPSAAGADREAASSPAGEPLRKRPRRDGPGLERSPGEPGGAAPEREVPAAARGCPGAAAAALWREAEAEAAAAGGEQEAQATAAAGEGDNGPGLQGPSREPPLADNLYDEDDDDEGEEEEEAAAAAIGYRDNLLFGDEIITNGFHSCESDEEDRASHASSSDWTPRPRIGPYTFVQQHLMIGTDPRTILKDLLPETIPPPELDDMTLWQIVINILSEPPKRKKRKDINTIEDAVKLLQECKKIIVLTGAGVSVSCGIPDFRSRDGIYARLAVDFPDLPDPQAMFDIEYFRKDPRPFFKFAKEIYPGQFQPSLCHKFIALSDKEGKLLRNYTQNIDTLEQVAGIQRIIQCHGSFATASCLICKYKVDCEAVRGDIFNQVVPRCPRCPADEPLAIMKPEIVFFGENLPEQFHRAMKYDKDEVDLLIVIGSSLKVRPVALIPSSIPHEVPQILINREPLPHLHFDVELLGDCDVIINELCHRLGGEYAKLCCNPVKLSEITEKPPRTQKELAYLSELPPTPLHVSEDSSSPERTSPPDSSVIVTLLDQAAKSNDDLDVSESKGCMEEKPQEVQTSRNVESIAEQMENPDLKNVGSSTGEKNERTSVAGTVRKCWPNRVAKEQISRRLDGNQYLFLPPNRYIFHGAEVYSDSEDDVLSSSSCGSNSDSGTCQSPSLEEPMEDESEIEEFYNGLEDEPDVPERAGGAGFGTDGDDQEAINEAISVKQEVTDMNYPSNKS
The note with it: cited from earlier work.

In data set [2] the target is T1, SIRT1. The note with it: cited from earlier work. The source holds these as a separate data set.

On to `O=C1CCc2c(ccc3ccccc23)O1` [Splitomycin], for which the concentration for half-maximal inhibition (IC50) in data set [1] is above 500 µM.

With Cambinol, the IC50 in data set [1] was above 600 µM; in data set [2], 56 µM.

As usually defined, the IC50 is the point on the concentration scale where inhibition reaches its midpoint.
